pEC50: −log10 of the molar value.

Sequences of proteins named here, by UniProt entry; tags and fusion partners are left off.
UniProt Q6DWJ6, whole entry: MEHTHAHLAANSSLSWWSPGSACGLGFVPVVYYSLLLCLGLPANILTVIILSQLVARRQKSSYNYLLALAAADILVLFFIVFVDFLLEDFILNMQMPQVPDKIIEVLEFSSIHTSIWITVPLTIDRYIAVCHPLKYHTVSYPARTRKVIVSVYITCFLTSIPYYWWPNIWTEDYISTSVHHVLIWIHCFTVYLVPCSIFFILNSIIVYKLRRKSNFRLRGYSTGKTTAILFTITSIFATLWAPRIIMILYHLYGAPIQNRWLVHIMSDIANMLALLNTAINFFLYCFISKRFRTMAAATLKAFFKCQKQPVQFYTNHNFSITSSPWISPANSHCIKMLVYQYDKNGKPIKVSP

The test has as its target GPR139 (Homo sapiens, UniProt Q6DWJ6). In words: Fluo-4 Ca2+-assay in CHO-k1 cells stably expressing GPR139 (CHO-GPR139). The class given is cell-based. The settings on record: values in Figure 5 and Supplementary Chart 1. Here is the method: Compound 1a[11] was kindly provided by H. Lundbeck A/S, Denmark. Compound 7c (Enamine no: Z31449867) was tested as a racemate, as the (S)-form described by Janssen et al. was not commercially available. All compounds were dissolved to 20 mM in DMSO (Sigma, D2650) and subsequently diluted in a HEPES buffer (HBSS (Invitrogen, 14025) supplemented with 20 mM HEPES + 1 mM MgCl2 + 1 mM CaCl2, pH = 7.4) to a final concentration 0.5% DMSO in the assay. The DMSO level was kept constant for all concentrations of all compounds. DMSO was confirmed not to have any activity by itself at this concentration. L-Tryptophan (T0254) and L-Phenylalanine (P2126) were obtained from Sigma-Aldrich and dissolved directly in buffer.
All compounds were tested on a CHO-k1 cell line stably expressing GPR139 (CHO-GPR139) kindly provided by H. Lundbeck A/S, Denmark, and also on a CHO-k1 cell line stably expressing the M1 receptor (CHO-M1) (The Missouri S&T cDNA Resource Center, #CEM100TN00) to check for specificity. The CHO-GPR139 was grown in Dulbecco’s modified eagle medium (DMEM) F12-Kaighn’s (Gibco, 21127) supplemented with 10% dialysed fetal bovine serum (Gibco, 26400, United States origin), 1% GlutaMAX^TM-I (100X) (Gibco, 35050), and 100 units/mL penicillin and 100 μg/mL streptomycin (Gibco, 15140) and 1.0 mg/mL geneticin (Invitrogen, 1181103). CHO-M1 was grown in Ham’s F12 (Gibco, 21765) supplemented with 10% fetal bovine serum (Gibco, 10270, South America origin) +100 units/mL penicillin and 100 μg/mL streptomycin (Invitrogen, 15140–122) and 0,25 mg/mL geneticin (Life Technologies, 11811–031). Compound 1a and carbamoylcholine chloride (Sigma-Aldrich, C4382) were used as positive controls in the two cell lines, respectively.
30.000 cells/well were plated in black 96-well plates with flat clear bottoms (Corning, Falcon, 353219) and incubated overnight. The Fluo-4 dye loading solution (Invitrogen, F36206) was prepared according to the manufacturer’s instructions by dissolving it in HEPES buffer supplemented with 2.5 mM probenecid. 50 μL dye loading solution was added to each well. Cells were incubated with the Fluo-4 dye for 60 min at 37 °C, then washed with 100 μL HEPES buffer. 100 μL HEPES buffer supplemented with 2.5 mM probenecid was then added to each well and incubated in 10 minutes at 37 °C before measurement. 33 μL of the test compounds (4x concentrated) were added automatically after baseline measurements. Intracellular calcium change was recorded on a NOVOstar instrument (BMG Labtech) at 37 °C with an excitation filter of 485 nm and an emission filters 520 nm. Data originate from three independent experiments in triplicates.
For orientation: pEC50 means the negative decadic logarithm of the EC50, by convention in mol/L. A low value points to a large EC50. The molecule `O=C(CNC(=O)c1ccc2c(c1)OCO2)NCc1ccc2c(c1)OCO2` gave a pEC50 of less than 5.00. In turn, `COc1cc(C(=O)NCC(=O)N2CCCc3ccccc32)cc(OC)c1OC` had a pEC50 of less than 5.00. For `CC(Oc1cccc(Br)c1)C(=O)NNC(=O)c1ccc2[nH]cnc2c1` (stereo not shown), the pEC50 is less than 5.00.

For `CCn1c(C)nc2cc(C(=O)NNC(=O)Cc3ccccc3F)ccc21`, the pEC50 is less than 5.00.

Source of the values: article PMC5103216, “Novel Agonist Bioisosteres and Common Structure-Activity Relationships for The Orphan G Protein-Coupled Receptor GPR139” (Scientific Reports, 2016).
